Inhibition data for one compound are collected here from ChEMBL document CHEMBL1641497, “A potent and selective indole N-type calcium channel (Ca(v)2.2) blocker for the treatment of pain” (Bioorg Med Chem Lett, 2011).

This data set concerns hERG (Homo sapiens). The data set is described as follows: Blockade of hERG channel at 10 uM by displacement of MK-0499 binding.

For the compound `COCCn1c(-c2cc(C)cc(C)c2)cc2cc(C(C)(C)C(=O)NC(C)(C)C)ccc21`, the inhibition at 10 µM was determined as 81%.
